From patent US4598081A, “1,3-dioxo-1H-benz(de)isoquinoline-2(3H) butyric acid, pharmacologically acceptable salts thereof and compositions containing the same for treatment of diabetes mellitus complications” (Nauchno-Issledovatelsky Institut Endokrinologii I Obmena …, priority 1985, dated 1986) come the findings set out here.

One series can be described thus: in vivo. Particulars: po. As to the method:
Mature animals both male and female, weighting 18 to 22 g (white mice), 180 to 220 g (rats), 11 to 15 kg (dogs) were used for said experiments.
The drug was introduced in the form of a starch suspension through a gastric tube.
Each dose being examined was tested on 5-6 animals.
LD50 determined by the Lichfield and Wilcoxon method, or the Van der Waerden method was used as an index of high toxicity. The animals were kept under observation for 5 days.

Series [1] concerns rats having alloxan diabetes. The experiment in a line: histological examination and biomicroscopy in rats with prolonged alloxan diabetes. Format: in vivo, Wistar rats. The note with it: 50 mg per kg per day peroral, 30 days. As to the method: The diabetes was caused by a single-time hypodermic injection of alloxan ("Chemapol") in a dose of 150 mg per kg of body weight.
Biomicroscopy of the conjunctiva was effected with the aid of a microscope fitted with a camera and a flash lamp.
For histological examination pieces of the kidney, liver and miocardium were fixed in 10% neutral formaline dehydrated in alcohol, and the paraffin sections were stained with hematoxylin and eosin, and also by the Van-Gizon method.

For `O=C(O)CCCN1C(=O)c2cccc3cccc(c23)C1=O` [1,3-dioxo-1H-benz(de)isoquinoline-2(3H)butyric acid] [listing 1 of 2 here], the LD50 – broadly, the dose at which mortality reaches 50% – at 120 h is 3800 mg/kg in the series “in vivo” (dog), 3700 mg/kg in the series “in vivo” (mouse) and 4000 mg/kg in “in vivo” (rat).
Regarding `O=C(O)CCCN1C(=O)c2cccc3cccc(c23)C1=O` [1,3-dioxo-1H-benz(de)isoquinoline-2(3H)butyric acid] [listing 2 of 2 here], the “therapeutic effect (histological examination)” value in series [1] is reported as “marked therapeutic effect”.
